Assay results reported in patent US20140056898A1, “COMBINATION THERAPIES COMPRISING ANTI-ERBB3 AGENTS” (priority 2011, published 2014).
“Also recorded” adds a separate entry of the source.

What was measured:
Format in all cases: cell-based
BT474-M3 cells [1] = test: Spheroid in vitro tumor model assay, dual ligand (estrogen and heregulin)-stimulated; conditions: estrogen and heregulin (dual ligand)-stimulated BT474-M3 spheroids, dose range
BT474-M3 cells [2] = test: Spheroid in vitro tumor model assay, heregulin-stimulated; conditions: heregulin-stimulated BT474-M3 spheroids, dose range
BT474-M3 cells [3] = test: Spheroid in vitro tumor model assay, estrogen-stimulated; conditions: estrogen-stimulated BT474-M3 spheroids, dose range, six days
Source text: Cells are continued to culture for six days.
Multicellular spheroids are used to simulate the growth and microenvironmental conditions of tumors in vitro.

BT474-M3 cells [4] = test: Apoptosis assay (Annexin V / PI, FACS) in spheroids; conditions: 72 hours, MM-111 100 nM, lapatinib 33 nM, Annexin V and PI positive
Description: After overnight incubation, spheroids are treated with inhibitor at concentrations indicated for 72 hours. Spheroids are then trypsinized and combined with floating cells. Cells are washed twice with cold PBS and suspended in binding buffer (0.01 M HEPES, pH 7.4; 0.14 M NaCl; 2.5 mM CaCl2). Cells are then stained with FITC-conjugated Annexin V and PI. Apoptotic cells are quantified on a FACSCalibur™ FACS machine.
The effect of the MM-111 combination with lapatinib on apoptosis was assessed in a BT474-M3 spheroid model. […] Cells were then stained with Annexin V and propidium iodide (PI) and quantitated using FACS (FIG. 11, Table 2). Cell populations staining positive with Annexin V and PI were quantified as late apoptotic, cell populations staining positive with Annexin V but not PI were quantified as early apoptotic, cell populations staining positive for PI but not Annexin V were quantified as dead cells and populations of cells not stained with either Annexin V or PI were considered alive and not apoptotic (Table 2).

Molecule | inhibition of spheroid growth (in words) (BT474-M3 cells [1]) | inhibition of spheroid growth (in words) (BT474-M3 cells [1]; listed as Trastuzumab) | inhibition of spheroid growth (in words) (BT474-M3 cells [2]) | inhibition of spheroid growth (in words) (BT474-M3 cells [3]) | Percent cell population: Late apoptosis (BT474-M3 cells [4]) [%]
trastuzumab | inhibited spheroid growth; also recorded: no significant inhibitory effects | no significant inhibitory effects | did not inhibit heregulin stimulated spheroid growth | showed inhibitory effects on spheroid growth | –
CS(=O)(=O)CCNCc1ccc(-c2ccc3ncnc(Nc4ccc(OCc5cccc(F)c5)c(Cl)c4)c3c2)o1 [lapatinib] | – | – | – | – | 14.5
